# Measurements from PubChem BioAssay AID720555 (National Center for Advancing Translational Sciences (NCATS), 2013).
# By UniProt entry, the sequences of proteins in these tests, tags left out. Where a name states a change or a piece, a line headed by the entry shows the natural chain unless it says otherwise.
# UniProt P54132: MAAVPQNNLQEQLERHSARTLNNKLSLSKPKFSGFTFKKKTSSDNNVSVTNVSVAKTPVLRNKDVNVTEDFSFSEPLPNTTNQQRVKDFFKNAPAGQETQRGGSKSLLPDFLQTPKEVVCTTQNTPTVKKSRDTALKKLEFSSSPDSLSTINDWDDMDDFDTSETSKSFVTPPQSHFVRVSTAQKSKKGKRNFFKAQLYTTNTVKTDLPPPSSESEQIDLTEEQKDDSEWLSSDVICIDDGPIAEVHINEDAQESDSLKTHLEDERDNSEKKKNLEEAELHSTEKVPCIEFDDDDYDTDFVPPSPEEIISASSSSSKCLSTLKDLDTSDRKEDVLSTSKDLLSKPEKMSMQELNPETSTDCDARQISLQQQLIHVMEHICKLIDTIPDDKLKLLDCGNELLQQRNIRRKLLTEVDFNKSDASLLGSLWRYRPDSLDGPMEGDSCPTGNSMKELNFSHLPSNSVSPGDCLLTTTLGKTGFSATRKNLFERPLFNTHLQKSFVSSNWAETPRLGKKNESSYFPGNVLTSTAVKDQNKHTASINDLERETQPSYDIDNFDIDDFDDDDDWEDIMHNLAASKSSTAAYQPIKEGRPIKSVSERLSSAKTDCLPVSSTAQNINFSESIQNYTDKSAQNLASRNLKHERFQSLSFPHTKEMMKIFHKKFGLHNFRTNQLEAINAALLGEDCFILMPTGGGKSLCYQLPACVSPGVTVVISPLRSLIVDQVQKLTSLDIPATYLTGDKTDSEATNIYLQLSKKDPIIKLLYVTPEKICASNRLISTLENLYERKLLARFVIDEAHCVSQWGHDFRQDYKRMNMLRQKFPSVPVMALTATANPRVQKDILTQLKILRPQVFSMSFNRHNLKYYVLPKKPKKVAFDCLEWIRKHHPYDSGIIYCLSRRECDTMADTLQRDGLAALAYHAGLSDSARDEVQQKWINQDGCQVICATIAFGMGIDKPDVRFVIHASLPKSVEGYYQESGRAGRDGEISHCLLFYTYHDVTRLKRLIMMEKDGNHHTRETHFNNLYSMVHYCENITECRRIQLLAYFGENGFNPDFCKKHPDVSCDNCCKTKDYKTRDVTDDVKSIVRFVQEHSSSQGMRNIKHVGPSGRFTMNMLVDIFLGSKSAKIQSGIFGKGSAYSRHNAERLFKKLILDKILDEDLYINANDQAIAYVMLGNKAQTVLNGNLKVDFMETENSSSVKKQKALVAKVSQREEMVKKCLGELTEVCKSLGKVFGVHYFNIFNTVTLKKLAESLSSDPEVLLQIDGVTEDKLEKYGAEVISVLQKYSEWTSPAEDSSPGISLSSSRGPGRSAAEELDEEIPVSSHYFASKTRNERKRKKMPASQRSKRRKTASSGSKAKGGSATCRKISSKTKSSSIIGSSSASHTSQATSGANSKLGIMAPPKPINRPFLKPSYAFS
# Values joined by “and” are separate entries in the source; they are usually repeats but may differ in a detail not shown here. Equal entries are not always repeated. The list shows a part of the results, in another mix than the full data. Results filed as inconclusive are left out. Active and inactive are the calls of the source. Calls come from the whole dose curve; as a rule, active = well fitted inhibition curve with a large enough effect; inconclusive = small, poorly fitted or top-dose-only effect; inactive = no such curve, though single readings can be large or run the other way.
# Target: RecQ-like DNA helicase BLM (Homo sapiens) (UniProt P54132)
# Experiment: qHTS for Inhibitors of Bloom's syndrome helicase (BLM): Helicase DNA unwinding fluorescent orthogonal confirmatory assay for SAR
# Conditions: fluorescence, orthogonal confirmation
# Excerpt: Human RecQ DNA helicases participate in maintenance of genome stability and DNA repair. While other types of helicases have been explored as targets for drug development, members of the RecQ family have remained less well characterized. Mutations of the Bloom helicase gene have been associated with the rare human genetic disease called Bloom syndrome. […] Moreover, identified inhibitors can be used in cells and animal models to examine the consequences of inhibition on the survival of cancer cells where it has been shown that BLM plays an important role.
# A fluorescence-based, biochemical assay in 1536 well format was developed to evaluate inhibition of BLM DNA unwinding activity. This assay was used to screen the MLPCN library. The resulting compounds were subjected to orthogonal and secondary biochemical assays to triage the initial hits, to classify compounds based on mode of action and to derive structure activity relationships (SARs) of candidate effectors. The data herein is the result of the Helicase DNA unwinding fluorescent orthogonal confirmatory assay. […]
# Unwinding assay for the BLM helicase was carried out in a reaction buffer containing 50 mM Tris-HCl pH 7.5, 50mM NaCl, 2mM MgCl2, 2mM ATP, 1mM DTT, and 0.1 mg/ml BSA. Optimal substrate and enzyme concentrations as well as reaction times were determined experimentally. […] Substrate and product bands were quantified using ImageJ. […]
smiles,measurement,value
O=C(Nc1ccc(F)c(C(F)(F)F)c1)Nc1nnc(-c2ccncc2)s1,Potency,active: 2.82 µM and active: 2 µM
